Assay results as given in US20220073922A1.

Amino acid sequences for entries named in this document (tags omitted). Chains listed by the source or under a name are the forms on record and can include a tag or linker.
UniProt P15692, other isoform, or with tags, fused parts or gaps limits assumed: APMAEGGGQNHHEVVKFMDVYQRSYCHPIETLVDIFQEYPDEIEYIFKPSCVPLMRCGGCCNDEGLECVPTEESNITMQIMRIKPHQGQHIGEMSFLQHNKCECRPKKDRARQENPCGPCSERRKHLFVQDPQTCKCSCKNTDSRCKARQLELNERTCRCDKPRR

Assays:
human VEGF-165 (human) [1] = target: human VEGF-165 (human) (UniProt P15692); assay: magnetic-bead partitioning binding assay read by flow cytometry; bound fraction against VEGF-165 concentration (1e-12 to about 1e-8 M), Langmuir one-site fit; how Lucentis was immobilised is not described
human VEGF-165 (human) [2] = target: human VEGF-165 (human) (UniProt P15692); assay: receptor competition assay: His-tagged human VEGF-165 (0.1 nM) on beads with 1 nM human VEGF Receptor 1 and varied Lucentis; bound receptor fraction by flow cytometry, dose-response inhibition fit; blocked partner: VEGF Receptor 1
human VEGF-165 (human) [3] = target: human VEGF-165 (human) (UniProt P15692); assay: receptor competition assay: His-tagged human VEGF-165 (0.1 nM) on beads with 1 nM human VEGF Receptor 2 and varied Lucentis; bound receptor fraction by flow cytometry, dose-response inhibition fit; blocked partner: VEGF Receptor 2

Lucentis® (Fab)
Kd (human VEGF-165 (human) [1]): 2.91 nM
IC50 (human VEGF-165 (human) [2]): 3.64 nM
IC50 (human VEGF-165 (human) [3]): 3.62 nM
